Test results reported in patent publication EP1674580A1, “Method for identifying activators and/or inhibitors of enzyme activity” (F. HOFFMANN-LA ROCHE AG, priority 2004, dated 2006).

Target: T1, recombinant rat insulin degrading enzyme (Rattus norvegicus, UniProt P35559)
T1 sequence (P35559 1-1019): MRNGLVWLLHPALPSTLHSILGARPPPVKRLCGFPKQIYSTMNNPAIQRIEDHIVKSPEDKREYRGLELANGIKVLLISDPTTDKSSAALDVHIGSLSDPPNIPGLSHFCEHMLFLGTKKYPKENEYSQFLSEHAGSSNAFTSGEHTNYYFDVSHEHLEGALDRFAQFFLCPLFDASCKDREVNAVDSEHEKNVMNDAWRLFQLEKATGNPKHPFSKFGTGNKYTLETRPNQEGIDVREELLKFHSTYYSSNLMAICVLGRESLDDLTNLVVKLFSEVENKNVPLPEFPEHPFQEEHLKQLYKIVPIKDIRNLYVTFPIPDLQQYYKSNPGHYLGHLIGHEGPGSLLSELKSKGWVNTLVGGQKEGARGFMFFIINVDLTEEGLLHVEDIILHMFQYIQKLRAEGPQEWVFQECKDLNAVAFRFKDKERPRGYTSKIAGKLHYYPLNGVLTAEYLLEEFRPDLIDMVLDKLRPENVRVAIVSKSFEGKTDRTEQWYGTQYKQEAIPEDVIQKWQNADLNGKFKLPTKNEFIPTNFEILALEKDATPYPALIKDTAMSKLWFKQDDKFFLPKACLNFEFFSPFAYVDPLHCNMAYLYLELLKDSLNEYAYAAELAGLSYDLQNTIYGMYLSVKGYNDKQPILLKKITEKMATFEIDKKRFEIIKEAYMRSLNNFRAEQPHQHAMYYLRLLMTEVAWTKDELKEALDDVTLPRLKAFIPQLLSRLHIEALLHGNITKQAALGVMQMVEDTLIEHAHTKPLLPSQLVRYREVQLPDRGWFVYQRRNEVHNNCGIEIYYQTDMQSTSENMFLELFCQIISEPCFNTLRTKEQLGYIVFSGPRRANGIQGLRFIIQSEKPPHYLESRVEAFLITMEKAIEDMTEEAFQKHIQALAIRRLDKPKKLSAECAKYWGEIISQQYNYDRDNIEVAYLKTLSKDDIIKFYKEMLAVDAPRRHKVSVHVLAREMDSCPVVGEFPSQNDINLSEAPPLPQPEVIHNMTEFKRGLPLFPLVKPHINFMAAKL
Assay: MR121/tryptophan static quenching protease assay with IDE
Conditions: screen at 20 µM candidate compound, 10 nM IDE, 100 nM substrate; 100% is the enzyme activity without compound

activation of IDE: positive
Structure (SMILES): Cc1ccc(C(=O)Nc2ccc(S(=O)(=O)O)c3cc(S(=O)(=O)O)cc(S(=O)(=O)O)c23)cc1NC(=O)c1cccc(NC(=O)Nc2cccc(C(=O)Nc3cc(C(=O)Nc4ccc(S(=O)(=O)O)c5cc(S(=O)(=O)O)cc(S(=O)(=O)O)c45)ccc3C)c2)c1 [Suramin]
